Binding of CDR-mutated scFvs to a peptide of the spike HR2 region

The measurements come from Engelhart et al. 2022 (doi:10.1038/s41597-022-01779-4) through the FLAb antibody collection.

Binding partner: SARS-CoV-2 spike HR2 peptide, sequence PDVDLGDISGINAS.

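The parent was found by panning a naive human phage display library on the peptide. Library AAYL50 holds single substitutions and randomly drawn double and triple substitutions in the CDRs. The assay is AlphaSeq: two haploid yeast populations carry antibody and antigen on their surface. The frequency of each diploid, read from paired DNA barcodes, reflects how well the two displayed proteins bind. A regression on co-assayed BCL2-family reference pairs converts the normalised counts of each replicate to an apparent Kd. The assay was run in three technical replicates.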

Parent: Ab-14, a human scFv built as VH, the linker GGGGSGGGGSGGGGS, VL. Only the CDRs of the light chain vary.
VH: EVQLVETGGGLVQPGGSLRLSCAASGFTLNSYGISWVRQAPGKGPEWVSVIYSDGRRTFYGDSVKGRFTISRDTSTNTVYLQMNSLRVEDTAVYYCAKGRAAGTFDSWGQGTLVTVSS
VL: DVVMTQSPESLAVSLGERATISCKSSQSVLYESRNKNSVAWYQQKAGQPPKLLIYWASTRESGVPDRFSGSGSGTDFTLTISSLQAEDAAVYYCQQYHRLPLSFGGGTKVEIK

Changes read parent residue, position, new residue, counted from the first residue of the VL shown.
These are single substitutions, in order of position.
Values are log10 of the apparent Kd in nM; lower means stronger binding.
"n.d." marks a missing value. The strain was present, yet no cells mated with the target were sequenced in that replicate, which points to weak or no binding.
For reference, the parent read 0.65 as the reference entry and 1.68 as a member of this library.
Nonspecific signal, from three strains lacking the peptide, appeared in 18% of pairings of library AAYL50, centred on 4.19 (5% of these signals below 2.99); values are not corrected for it. For each scFv, signals with the empty controls are counted beside the result, with their mean in brackets.

| changes | log10 Kd (nM) by replicate | control signals |
|---|---|---|
| E61V | -0.05 0.48 0.19 | 0 of 9 |
| E61P | 1.54 1.52 1.64 | 6 of 9 (4.64) |
| E61R | n.d. n.d. n.d. | 0 of 9 |
| E61D | 0.72 1.13 1.36 | 0 of 9 |
| E61G | 1.48 1.52 1.60 | 2 of 9 (4.09) |
| E61Q | 1.68 2.45 2.13 | 2 of 9 (4.27) |
| E61Y | 1.01 1.08 1.09 | 2 of 9 (4.60) |
| E61W | n.d. n.d. n.d. | 0 of 9 |
| S62D | 1.19 1.33 1.23 | 6 of 9 (4.94) |
| S62G | 2.68 2.16 2.69 | 2 of 9 (3.02) |
| S62R | 0.88 0.96 0.97 | 2 of 9 (4.03) |
| S62P | 1.09 1.22 1.18 | 4 of 9 (4.90) |
| S62N | 0.40 0.71 0.58 | 0 of 9 |
| S62Q | 1.28 1.33 1.35 | 4 of 9 (4.15) |
| S62H | 0.78 1.00 0.93 | 4 of 9 (4.71) |
| S62T | n.d. n.d. n.d. | 1 of 9 (3.56) |
| S62W | 0.55 1.23 1.38 | 0 of 9 |
| S62Y | 0.72 1.04 0.96 | 0 of 9 |
| S62K | n.d. n.d. n.d. | 0 of 9 |
| S62L | 0.80 1.06 0.89 | 4 of 9 (5.50) |
| S62A | 0.54 0.81 0.65 | 5 of 9 (5.42) |
| S62F | 1.54 1.81 1.63 | 2 of 9 (3.36) |
| S62E | 1.20 1.13 0.92 | 4 of 9 (3.89) |
| S62I | 0.58 0.79 0.71 | 2 of 9 (3.72) |
| S62V | 0.80 0.88 0.69 | 5 of 9 (3.88) |
| Q95K | 5.27 3.13 4.02 | 6 of 9 (4.51) |
| Q95T | n.d. n.d. n.d. | 0 of 9 |
| Q95I | n.d. n.d. 4.37 | 0 of 9 |
| Q95G | 2.62 2.50 2.56 | 0 of 9 |
| Q95Y | 0.54 0.85 0.76 | 2 of 9 (4.13) |
| Q95H | n.d. n.d. n.d. | 2 of 9 (5.16) |
| Q95N | 2.59 2.02 2.61 | 3 of 9 (3.98) |
| Q95D | 1.71 1.69 1.96 | 2 of 9 (4.63) |
| Q95S | 1.62 0.66 2.54 | 0 of 9 |
| Q95P | 1.71 1.56 1.89 | 2 of 9 (3.39) |
| Q95R | n.d. 4.48 n.d. | 4 of 9 (4.56) |
| Q95F | 0.71 0.87 0.72 | 1 of 9 (3.13) |
| Q95C | n.d. n.d. n.d. | 3 of 9 (3.26) |
| Q95E | 1.55 2.36 n.d. | 1 of 9 (3.17) |
| Q95M | 0.74 0.91 0.92 | 0 of 9 |
| Q95W | 4.04 n.d. 4.03 | 4 of 9 (3.96) |
| Q95L | 2.15 1.72 2.15 | 1 of 9 (3.68) |
| Q96M | 1.81 1.22 1.13 | 0 of 9 |
| Q96C | n.d. n.d. n.d. | 1 of 9 (4.12) |

The 7 strongest on average among those seen in every replicate, once more:

| changes | log10 Kd (nM) by replicate | control signals |
|---|---|---|
| E61V | -0.05 0.48 0.19 | 0 of 9 |
| S62N | 0.40 0.71 0.58 | 0 of 9 |
| S62A | 0.54 0.81 0.65 | 5 of 9 (5.42) |
| S62I | 0.58 0.79 0.71 | 2 of 9 (3.72) |
| Q95Y | 0.54 0.85 0.76 | 2 of 9 (4.13) |
| Q95F | 0.71 0.87 0.72 | 1 of 9 (3.13) |
| S62V | 0.80 0.88 0.69 | 5 of 9 (3.88) |